How the values were obtained:
Format in all cases: cell-based
Runx2 [1] = assay: Runx2 acetylation: immunoprecipitation with anti-acetyl-lysine antibody, Western blot with anti-myc antibody; conditions: C2C12 cells transfected with myc-tagged Runx2, presence or absence of BMP-2 and p300; FIG. 5
Experimental: Following transfection, the C2C12 and 293 cells were lysed in ice-cold cell lysis buffer (25 mM HEPES (pH 7.5), 150 mM NaCl, 1% NP-40, 0.25% Na deoxycholate, 10% glycerol, 25 mM NaF, 1 mM EDTA, 1 mM Na3VO4, 250 μM phenylmethylsulfonyl fluoride, 10 μg/ml leupeptin, 10 μg/ml aprotinin) and cleared by centrifugation. The resulting supernatants were immunoprecipitated with the appropriate primary and secondary antibodies, and protein A- or protein G-Sepharose beads (Amersham) for 4 hours. All incubations were conducted at 4° C. The Sepharose beads were washed extensively and bound proteins were separated using SDS-PAGE, and then transferred to PVDF membranes. The membranes were incubated with the appropriate antibodies, washed, and then incubated with horseradish peroxidase-coupled secondary antibodies. After washing, the reactive proteins were visualized with an enhanced chemiluminescence (ECL) reagent (Amersham Biosciences).
For HDAC inhibitor treatments, both C2C12 and 293 cells were cultured in fresh medium for 1 day following transfection, and then treated with the inhibitors (Tricostatin A (TSA), CHAP and SCOP) for 16 h, at the specified concentrations according to the methods of Komatsu et al (Cancer Res. 61:4459-4466, 2001) and Nishino et al (Nishino N. et al., Org. Lett. 5: 5079-5082, 2003). […]

Runx2 [2] = assay: Western blot of myc-tagged Runx2 protein level in C2C12 cells with or without BMP-2; conditions: C2C12 cells transfected with myc-tagged Runx2, 300 ng/l BMP-2; FIG. 1
Experimental: (§1) After confirming that Runx2 is a major target of BMP-2 signaling pathway and BMP-2 regulates transcription level of Runx2 (Lee K. S et al. Mol. Cell. Biol. 20:8783-879, 2000), the present inventors investigated whether BMP-2 regulates post-transcription level of Runx2 as well. Particularly, C2C12 pluripotent mesenchymal precursor cells were transfected with myc-tagged Runx2 in the presence or absence of 300 ng/l of BMP-2, followed by Western blotting using anti-myc antibody. As a result, the level of Runx2 protein was much higher in BMP-2 treated cells (FIG. 1). The result was confirmed by co-expression of HA-tagged Runx2 and increasing amount of BMP receptor 1 (BMPR1) of 0, 0.25, 0.5, 1 and 2 μg. That is, the level of Runx2 increases with proportion to the amount of BMPR1 (FIG. 2). […] To eliminate the possibility of BMP-2 mediated transcriptional activity of the transfected Runx2 gene, the present inventors measured the level of Runx2 by BMP-2 transcriptional activity using quantitative RT-PCR. […] To quantify endogenous Runx2 level, primers represented by SEQ. […] Following quantitative RT-PCR, PCR products were collected (1/20 of reaction mixture) from several reaction cycles (from 25 to 30), and fragments were separated using agarose gel electrophoresis.

Runx2 mRNA = assay: Semi-quantitative RT-PCR of endogenous and exogenous Runx2 mRNA in 293 cells; conditions: FIG. 4
Experimental: as §1

B1: BMP-2: bone morphogenetic protein-2, bone formation factor added to cells (protein, UniProt P12643 283-396, looked up)
Bone morphogenetic protein 2: QAKHKQRKRLKSSCKRHPLYVDFSDVGWNDWIVAPPGYHAFYCHGECPFPLADHLNSTNHAIVQTLVNSVNSKIPKACCVPTELSAISMLYLDENEKVVLKNYQDMVVEGCGCR
Runx2 acetylation (Runx2 [1]): acetylated
level of Runx2 protein (Runx2 [2]): much higher
endogenous Runx2 mRNA level (Runx2 mRNA): increased
exogenous Runx2 mRNA level (Runx2 mRNA): not changed
